According to ChEMBL document CHEMBL6134892, “Discovery and Evaluation of DA-302168S as an Efficacious Oral Small-Molecule Glucagon-Like Peptide-1 Receptor Agonist” (J Med Chem, 2025):
Calls of active or inactive are those of the source. No cut-off for these calls is given here.

Protein sequences, listed by entry. Tags and fused reporters are not part of them.
UniProt P47871, whole entry: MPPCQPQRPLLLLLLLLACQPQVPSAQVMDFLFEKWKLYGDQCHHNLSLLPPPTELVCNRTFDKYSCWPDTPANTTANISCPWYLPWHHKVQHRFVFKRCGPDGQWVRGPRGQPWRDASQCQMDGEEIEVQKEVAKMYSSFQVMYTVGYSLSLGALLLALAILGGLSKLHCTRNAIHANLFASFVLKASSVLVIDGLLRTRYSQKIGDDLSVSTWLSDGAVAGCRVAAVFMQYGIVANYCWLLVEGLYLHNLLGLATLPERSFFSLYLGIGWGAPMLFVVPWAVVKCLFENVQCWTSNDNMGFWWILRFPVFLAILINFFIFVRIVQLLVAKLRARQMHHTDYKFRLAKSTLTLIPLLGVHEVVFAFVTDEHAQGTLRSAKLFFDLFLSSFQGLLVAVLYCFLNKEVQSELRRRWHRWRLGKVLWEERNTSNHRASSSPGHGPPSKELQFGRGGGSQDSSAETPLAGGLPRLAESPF
UniProt P43220, whole entry: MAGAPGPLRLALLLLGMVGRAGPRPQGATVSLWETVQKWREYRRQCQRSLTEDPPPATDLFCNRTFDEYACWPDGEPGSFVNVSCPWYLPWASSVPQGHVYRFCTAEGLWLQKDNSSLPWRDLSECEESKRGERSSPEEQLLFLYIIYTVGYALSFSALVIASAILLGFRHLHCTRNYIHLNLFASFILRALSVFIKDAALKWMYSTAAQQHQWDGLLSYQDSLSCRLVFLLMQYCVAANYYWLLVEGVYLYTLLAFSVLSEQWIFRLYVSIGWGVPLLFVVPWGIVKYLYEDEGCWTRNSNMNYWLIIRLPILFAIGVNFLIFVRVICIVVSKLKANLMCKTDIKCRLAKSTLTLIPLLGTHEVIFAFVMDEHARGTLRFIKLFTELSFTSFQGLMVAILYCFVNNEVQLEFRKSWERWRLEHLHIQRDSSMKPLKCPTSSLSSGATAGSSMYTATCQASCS

Columns and labels:
[1] = target: T1, Glucagon-like peptide 1 receptor (Mus musculus) (UniProt O35659); test: Agonist activity at mouse GLP-1R expressed in HEK293 cells assessed as maximum efficacy by cAMP accumulation assay relative to control; type: functional, cell-based
T1 sequence (whole entry): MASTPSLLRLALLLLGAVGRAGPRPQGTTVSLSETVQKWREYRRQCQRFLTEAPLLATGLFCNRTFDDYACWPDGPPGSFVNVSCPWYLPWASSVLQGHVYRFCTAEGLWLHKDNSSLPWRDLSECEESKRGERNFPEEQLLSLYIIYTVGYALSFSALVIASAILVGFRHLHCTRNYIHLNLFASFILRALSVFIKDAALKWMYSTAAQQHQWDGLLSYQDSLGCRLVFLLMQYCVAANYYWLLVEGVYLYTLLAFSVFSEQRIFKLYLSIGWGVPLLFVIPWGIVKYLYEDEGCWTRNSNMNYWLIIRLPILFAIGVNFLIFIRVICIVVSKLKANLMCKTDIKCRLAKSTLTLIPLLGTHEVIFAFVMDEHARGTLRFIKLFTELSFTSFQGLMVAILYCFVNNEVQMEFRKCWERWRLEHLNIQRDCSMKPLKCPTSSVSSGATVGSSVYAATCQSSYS

[2] = target: Glucagon receptor (Homo sapiens) (UniProt P47871); test: Activation of human GCGR expressed in HEK293 cells by cAMP accumulation assay; type: functional, cell-based
[3] = target: T2, Gastric inhibitory polypeptide receptor (Homo sapiens) (UniProt P48546); test: Activation of human GIP receptor expressed in HEK293 cells by cAMP accumulation assay; type: functional, cell-based
T2 sequence (whole entry): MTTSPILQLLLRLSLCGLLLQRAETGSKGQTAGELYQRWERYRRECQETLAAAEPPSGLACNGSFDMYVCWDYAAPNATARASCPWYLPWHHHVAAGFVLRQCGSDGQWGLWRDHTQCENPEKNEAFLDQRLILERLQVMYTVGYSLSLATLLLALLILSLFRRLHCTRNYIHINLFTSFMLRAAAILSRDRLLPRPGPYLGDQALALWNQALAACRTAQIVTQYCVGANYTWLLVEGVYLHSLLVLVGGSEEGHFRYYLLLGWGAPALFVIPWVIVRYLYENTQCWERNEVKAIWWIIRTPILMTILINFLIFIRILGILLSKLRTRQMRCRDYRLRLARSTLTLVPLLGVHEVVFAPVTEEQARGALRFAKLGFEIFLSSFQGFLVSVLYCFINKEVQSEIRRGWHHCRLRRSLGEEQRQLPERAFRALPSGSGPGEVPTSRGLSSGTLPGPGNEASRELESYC

[4] = system: Mus musculus; test: Hypoglycemic activity in hGLP-1R male transgenic mouse assessed as reduction in blood glucose level at 0.025 to 1 mg/kg, po administered 1 hrs prior to glucose challenge measured up to 120 mins by IPGTT; type: functional, organism-based; conditions: dose 0.025-1 mg/kg, time <= 180.0 min
[5] = target: Glucagon-like peptide 1 receptor (Homo sapiens, UniProt P43220); test: Agonist activity at human GLP-1R expressed in HEK293 cells assessed as maximum efficacy by cAMP accumulation assay relative to control; type: functional, cell-based; conditions: filed as agonist
[6] = system: Mus musculus; test: Hypoglycemic activity in hGLP-1R male transgenic mouse assessed as increase in insulin secretion at 0.3 mg/kg, po administered 1 hrs prior to glucose challenge measured up to 120 mins by IPGTT; type: functional, organism-based; conditions: time <= 180.0 min
[7] = system: Mus musculus; test: Anti-obesity activity in hGLP-1R male transgenic mouse assessed as decrease in food uptake at 3 mg/kg administered orally and measured for 24 hrs; type: functional, organism-based; conditions: route po
[8] = system: Mus musculus; test: Hypoglycemic activity in hGLP-1R male transgenic mouse assessed as reduction in blood glucose level at 0.1 mg/kg, po administered 1 hrs prior to glucose challenge measured up to 120 mins by IPGTT; type: functional, organism-based; conditions: time <= 180.0 min
[9] = system: HEK293; test: Agonist activity at dog GLP-1R expressed in HEK293 cells assessed as maximum efficacy by cAMP accumulation assay relative to control; type: cell-based; conditions: Canis lupus familiaris
[10] = system: HEK293; test: Agonist activity at cynomolgus monkey GLP-1R expressed in HEK293 cells assessed as maximum efficacy by cAMP accumulation assay relative to control; type: cell-based; conditions: Macaca fascicularis, filed as agonist
[11] = system: Mus musculus; test: Anti-obesity activity in hGLP-1R male transgenic mouse assessed as decrease in food consumption administered orally and measured for 24 hrs; type: functional, organism-based; conditions: dose 1-10 mg/kg, route po
[12] = system: Cynomolgus monkey; test: Hypoglycemic activity in po dosed cynomolgus monkey assessed as reduction in blood glucose level administered 2 hrs prior to glucose challenge measured within 60 mins by IVGTT; type: functional, organism-based; conditions: Macaca fascicularis, dose 3-10 mg/kg, time 180.0 min
[13] = system: Cynomolgus monkey; test: Hypoglycemic activity in cynomolgus monkey assessed as increase in insulin secretion at 3 mg/kg, po administered 2 hrs prior to glucose challenge measured within 60 mins by IVGTT; type: functional, organism-based; conditions: Macaca fascicularis, time 180.0 min
[14] = target: T3, Glucagon-like peptide 1 receptor (Rattus norvegicus) (UniProt P32301); test: Agonist activity at rat GLP-1R expressed in HEK293 cells assessed as maximum efficacy by cAMP accumulation assay relative to control; type: functional, cell-based
T3 sequence (whole entry): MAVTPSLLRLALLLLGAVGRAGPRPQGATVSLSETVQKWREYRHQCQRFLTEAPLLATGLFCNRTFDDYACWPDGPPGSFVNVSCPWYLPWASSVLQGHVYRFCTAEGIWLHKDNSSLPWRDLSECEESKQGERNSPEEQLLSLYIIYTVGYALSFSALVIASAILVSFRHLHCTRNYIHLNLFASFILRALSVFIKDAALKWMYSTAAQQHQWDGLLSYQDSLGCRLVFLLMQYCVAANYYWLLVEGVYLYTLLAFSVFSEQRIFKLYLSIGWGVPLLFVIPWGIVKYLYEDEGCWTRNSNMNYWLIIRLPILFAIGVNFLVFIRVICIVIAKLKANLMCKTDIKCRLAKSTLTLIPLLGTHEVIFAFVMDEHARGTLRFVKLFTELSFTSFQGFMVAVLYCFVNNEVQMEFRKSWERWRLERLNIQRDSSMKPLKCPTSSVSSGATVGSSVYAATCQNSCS

[15] = target: T4, Glucagon-like peptide 2 receptor (Homo sapiens) (UniProt O95838); test: Activation of human GLP-2R expressed in HEK293 cells by cAMP accumulation assay; type: functional, cell-based
T4 sequence (whole entry): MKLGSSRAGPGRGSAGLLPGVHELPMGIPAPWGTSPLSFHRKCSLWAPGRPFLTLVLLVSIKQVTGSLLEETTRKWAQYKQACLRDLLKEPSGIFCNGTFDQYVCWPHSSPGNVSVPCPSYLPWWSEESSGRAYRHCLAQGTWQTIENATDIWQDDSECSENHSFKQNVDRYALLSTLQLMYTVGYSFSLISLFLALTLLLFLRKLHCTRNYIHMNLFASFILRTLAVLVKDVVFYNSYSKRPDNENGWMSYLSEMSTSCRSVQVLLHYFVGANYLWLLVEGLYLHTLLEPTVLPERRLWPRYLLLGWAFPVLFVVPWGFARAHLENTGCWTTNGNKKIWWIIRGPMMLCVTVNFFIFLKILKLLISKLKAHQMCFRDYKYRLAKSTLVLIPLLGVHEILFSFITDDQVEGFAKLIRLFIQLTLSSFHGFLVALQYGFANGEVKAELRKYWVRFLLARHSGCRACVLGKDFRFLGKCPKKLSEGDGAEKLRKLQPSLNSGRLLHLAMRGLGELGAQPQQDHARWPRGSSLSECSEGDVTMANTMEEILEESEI

SMILES: O=C(O)c1ccc2nc(Cc3ccc(-c4ccc(F)c(OCc5ccc(Cl)c6ccoc56)n4)cc3F)n(C[C@@H]3CCO3)c2c1
- Emax [1]: 1.77%
- Activity [2]: inactive
- Activity [3]: inactive
- Activity [4]: Active
- Emax [5]: 101%
- Activity [6]: Active
- Activity [7]: Active; Compound Showed Significant Reduction In Food Uptake Than Danuglipron
- Activity [8]: Active; Compound Showed Superior Activity Than Danuglipron
- Emax [9]: 2.34%
- Emax [10]: 99.9%
- Activity [11]: Dose-dependent-effect
- Activity [12]: Dose-dependent-effect
- Activity [13]: Active
- Emax [14]: 22.6%
- Activity [15]: inactive
